The conditions of data set [1]: in vivo.
Data set [2] is described as follows: Established and other potentially significant drug interactions (Table 5). The settings on record: trial-based or predicted.
The mark [3] stands for this setting: with anticonvulsants: carbamazepine, oxcarbazepine, phenobarbital, phenytoin.
[4] abbreviates: with macrolide or ketolide antibiotics: clarithromycin, erythromycin, telithromycin.

Like-named read-outs stand apart in the source and are kept apart here.

Turning to `C[C@H]1CO[C@@H]2Cn3cc(C(=O)NCc4ccc(F)cc4F)c(=O)c(O)c3C(=O)N12` [Cabotegravir, (3S,11aR)-N-[(2,4-difluorophenyl)methyl]-6-hydroxy-3-methyl-5,7-dioxo-2,3,5,7,11,11a-hexahydro[1,3]oxazolo[3,2-a]pyrido[1,2-d]pyrazine-8-carboxamide], the “Effect on Concentration” value in data set [1] is on record as “↓Cabotegravir”; in data set [2] (setting [3]), “↓Cabotegravir”; in data set [2] (setting [4]) it was “↔Cabotegravir”.
`Cc1cc(/C=C/C#N)cc(C)c1Nc1ccnc(Nc2ccc(C#N)cc2)n1` [Rilpivirine, 4-[[4-[[4-[(E)-2-cyanoethenyl]-2,6-dimethylphenyl]amino]-2-pyrimidinyl]amino]benzonitrile]: the “Effect on Concentration” value in data set [1] was “↓Rilpivirine”; in data set [2] (with St John's wort (Hypericum perforatum)) it was “↓Rilpivirine”; in data set [2] (setting [3]), “↓Rilpivirine”; in data set [2] (setting [4]), “↑Rilpivirine”; in data set [2] (with systemic dexamethasone (more than a single-dose treatment)), “↓Rilpivirine”.

The values above are taken from US12636285B2 (dated 2026).
